From ChEMBL document CHEMBL1134466 (J Med Chem, 2001)

What was measured:
[1] = system: Mus musculus; assay: Half life period after (ip) administration of 50 mg/kg in B6D2F1 mice; settings: in vivo
[2] = system: Mus musculus; assay: Toxicity in female B6D2F1 mice measured as BUN when given 0 mg/kg daily * 5 (ip); settings: in vivo
[3] = system: Mus musculus; assay: Toxicity in female B6D2F1 mice measured as BUN when given 1.6 mg/kg daily * 5 (ip); settings: in vivo
[4] = system: Mus musculus; assay: Toxicity in female B6D2F1 mice measured as BUN when given 16 mg/kg daily * 5 (ip); settings: in vivo
[5] = system: Mus musculus; assay: Toxicity in female B6D2F1 mice measured as BUN when given 8 mg/kg daily * 5 (ip); settings: in vivo
[6] = system: Mus musculus; assay: Toxicity in female B6D2F1 mice measured as alanine aminotransferase when given 0 mg/kg daily * 5 (ip); settings: in vivo
[7] = system: Mus musculus; assay: Toxicity in female B6D2F1 mice measured as alanine aminotransferase when given 1.6 mg/kg daily * 5 (ip); settings: in vivo
[8] = system: Mus musculus; assay: Toxicity in female B6D2F1 mice measured as alanine aminotransferase when given 16 mg/kg daily * 5 (ip); settings: in vivo
[9] = system: Mus musculus; assay: Toxicity in female B6D2F1 mice measured as alanine aminotransferase when given 8 mg/kg daily * 5 (ip); settings: in vivo
[10] = system: Mus musculus; assay: Toxicity to bone marrow granulocyte/macrophage progenitors per femur at a dose of 100 mg/kg (ip); settings: in vivo
[11] = system: Mus musculus; assay: Toxicity to bone marrow granulocyte/macrophage progenitors per femur at a dose of 150 mg/kg (ip); settings: in vivo
[12] = system: Mus musculus; assay: Toxicity to bone marrow granulocyte/macrophage progenitors per femur at a dose of 200 mg/kg (ip); settings: in vivo
[13] = system: Mus musculus; assay: Antitumor activity in MX-1 Xenograft Model at a dose of 16 mg/kg (ip) measured as percent growth inhibition
[14] = system: Mus musculus; assay: Antitumor activity in MX-1 Xenograft Model at a dose of 8 mg/kg (ip) measured as percent growth inhibition
[15] = system: Mus musculus; assay: Antitumor activity in MX-1 Xenograft Model at a dose of 40 mg/kg (po) measured as percent growth inhibition
[16] = system: Mus musculus; assay: Toxicity in female B6D2F1 mice measured as RBC count when given 8 mg/kg daily * 5 (ip); settings: in vivo
[17] = system: Mus musculus; assay: Toxicity in female B6D2F1 mice measured as RBC count when given 0 mg/kg daily * 5 (ip); settings: in vivo
[18] = system: Mus musculus; assay: Toxicity in female B6D2F1 mice measured as RBC count when given 1.6 mg/kg daily * 5 (ip); settings: in vivo
[19] = system: Mus musculus; assay: Antitumor activity against B16 murine melanoma at a dose of 16 mg/kg (ip) measured as 60-day survivors (% LTS)
[20] = system: Mus musculus; assay: Antitumor activity against B16 murine melanoma at a dose of 8 mg/kg (ip) measured as 60-day survivors (% LTS)
[21] = system: Mus musculus; assay: Toxicity in female B6D2F1 mice measured as spleen wt when given 16 mg/kg daily * 5 (ip); settings: in vivo
[22] = system: Mus musculus; assay: Toxicity in female B6D2F1 mice measured as spleen wt when given 8 mg/kg daily * 5 (ip); settings: in vivo
[23] = system: Mus musculus; assay: Toxicity in female B6D2F1 mice measured as thymus wt when given 0 mg/kg daily * 5 (ip); settings: in vivo
[24] = system: Mus musculus; assay: Toxicity in female B6D2F1 mice measured as thymus wt when given 1.6 mg/kg daily * 5 (ip); settings: in vivo
[25] = system: Mus musculus; assay: Toxicity in female B6D2F1 mice measured as thymus wt when given 16 mg/kg daily * 5 (ip); settings: in vivo
[26] = system: Mus musculus; assay: Toxicity in female B6D2F1 mice measured as thymus wt when given 8 mg/kg daily * 5 (ip); settings: in vivo
[27] = system: Mus musculus; assay: Antitumor activity against B16 murine melanoma at a dose of 16 mg/kg (ip) measured as percent weight change on day 8
[28] = system: Mus musculus; assay: Antitumor activity against B16 murine melanoma at a dose of 16 mg/kg (ip) measured as increased life span (% T/C)
[29] = system: Mus musculus; assay: Antitumor activity against B16 murine melanoma at a dose of 8 mg/kg (ip) measured as increased life span (% T/C)
[30] = system: Mus musculus; assay: Toxicity in female B6D2F1 mice measured as platelet count when given 0 mg/kg daily * 5 (ip); settings: in vivo
[31] = system: Mus musculus; assay: Toxicity in female B6D2F1 mice measured as platelet count when given 1.6 mg/kg daily * 5 (ip); settings: in vivo
[32] = system: Mus musculus; assay: Antitumor activity in MX-1 Xenograft Model at a dose of 40 mg/kg (po) measured as percent weight change on day 8
[33] = system: Mus musculus; assay: Antitumor activity in MX-1 Xenograft Model at a dose of 8 mg/kg (ip) measured as percent weight change on day 8
[34] = system: Mus musculus; assay: Antitumor activity in MX-1 Xenograft Model at a dose of 16 mg/kg (ip) measured as number of mice with partial tumor regression
[35] = system: Mus musculus; assay: Antitumor activity in MX-1 Xenograft Model at a dose of 40 mg/kg (po) measured as number of mice with partial tumor regression
[36] = system: Mus musculus; assay: Antitumor activity in MX-1 Xenograft Model at a dose of 8 mg/kg (ip) measured as number of mice with partial tumor regression
[37] = system: Mus musculus; assay: Toxicity in female B6D2F1 mice measured as alkaline phosphatase when given 1.6 mg/kg daily * 5 (ip); settings: in vivo
[38] = system: Mus musculus; assay: Toxicity in female B6D2F1 mice measured as alkaline phosphatase when given 16 mg/kg daily * 5 (ip); settings: in vivo
[39] = system: Mus musculus; assay: Toxicity in female B6D2F1 mice measured as spleen wt when given 1.6 mg/kg daily * 5 (ip); settings: in vivo
[40] = system: Mus musculus; assay: Antitumor activity in MX-1 Xenograft Model at a dose of 8 mg/kg (ip) measured as number of mice with complete tumor regression
[41] = system: Mus musculus; assay: Toxicity in female B6D2F1 mice measured as alkaline phosphatase when given 0 mg/kg daily * 5 (ip); settings: in vivo
[42] = system: Mus musculus; assay: Toxicity in female B6D2F1 mice measured as spleen wt when given 0 mg/kg daily * 5 (ip); settings: in vivo
[43] = system: Mus musculus; assay: Antitumor activity in MX-1 Xenograft Model at a dose of 16 mg/kg (ip) measured as number of mice with complete tumor regression
[44] = system: Mus musculus; assay: Antitumor activity in MX-1 Xenograft Model at a dose of 40 mg/kg (po) measured as number of mice with complete tumor regression
[45] = system: Mus musculus; assay: Toxicity in female B6D2F1 mice measured as platelet count when given 16 mg/kg daily * 5 (ip); settings: in vivo
[46] = system: Mus musculus; assay: Toxicity in female B6D2F1 mice measured as platelet count when given 8 mg/kg daily * 5 (ip); settings: in vivo
[47] = system: Mus musculus; assay: Toxicity in female B6D2F1 mice measured as alkaline phosphatase when given 8 mg/kg daily * 5 (ip); settings: in vivo
[48] = system: Mus musculus; assay: Toxicity in female B6D2F1 mice measured as WBC count when given 0 mg/kg daily * 5 (ip); settings: in vivo
[49] = system: Mus musculus; assay: Toxicity in female B6D2F1 mice measured as WBC count when given 1.6 mg/kg daily * 5 (ip); settings: in vivo
[50] = system: Mus musculus; assay: Toxicity in female B6D2F1 mice measured as WBC count when given 16 mg/kg daily * 5 (ip); settings: in vivo
[51] = system: Mus musculus; assay: Toxicity in female B6D2F1 mice measured as WBC count when given 8 mg/kg daily * 5 (ip); settings: in vivo
[52] = system: Mus musculus; assay: Antitumor activity in MX-1 Xenograft Model at a dose of 16 mg/kg (ip) measured as percent weight change on day 8
[53] = system: Mus musculus; assay: Toxicity in female B6D2F1 mice measured as RBC count when given 16 mg/kg daily * 5 (ip); settings: in vivo

NP(=O)(OCc1ccc([N+](=O)[O-])o1)N(CCBr)CCBr (stereo not drawn)
T1/2 [1]: 11.6 min
BUN [2]: 30.6 mg/dL
BUN [3]: 20 mg/dL
BUN [4]: 23 mg/dL
BUN [5]: 23.6 mg/dL
ALT. [6]: 40 U l-1
ALT. [7]: 43 U l-1
ALT. [8]: 45 U l-1
ALT. [9]: 37 U l-1
Control [10]: 79%
Control [11]: 52%
Control [12]: 28%
growth inhibition (GI) [13]: > 99%
growth inhibition (GI) [14]: 93%
growth inhibition (GI) [15]: 98%
RBC x 10e 3 [16]: 7.9 µL⁻¹
RBC x 10e 3 [17]: 8.5 µL⁻¹
RBC x 10e 3 [18]: 8.7 µL⁻¹
LTS [19]: 40%
LTS [20]: 0%
Weight [21]: 45 mg
Weight [22]: 48 mg
Weight [23]: 41 mg
Weight [24]: 57 mg
Weight [25]: 17 mg
Weight [26]: 33 mg
Weight change [27]: 19%
T/C [28]: 228%
T/C [29]: 199%
Platelets x10e-3 [30]: 846 µL⁻¹
Platelets x10e-3 [31]: 970 µL⁻¹
Weight change [32]: 3%
Weight change [33]: 0%
No. partial [34]: 4
No. partial [35]: 5
No. partial [36]: 4
alkaline phosphatase activity [37]: 134 U l-1
alkaline phosphatase activity [38]: 89 U l-1
Weight [39]: 88 mg
No. total [40]: 0
alkaline phosphatase activity [41]: 144 U l-1
Weight [42]: 68 mg
No. total [43]: 6
No. total [44]: 1
Platelets x10e-3 [45]: 689 µL⁻¹
Platelets x10e-3 [46]: 1190 µL⁻¹
alkaline phosphatase activity [47]: 123 U l-1
WBC x10e-3 [48]: 5.6 µL⁻¹
WBC x10e-3 [49]: 4.5 µL⁻¹
WBC x10e-3 [50]: 1.9 µL⁻¹
WBC x10e-3 [51]: 2.5 µL⁻¹
Weight change [52]: 4%
RBC x 10e 3 [53]: 7.7 µL⁻¹
